Assays:
TtArsC [1] = biological target: T1, TtArsC (Thermus thermophilus, UniProt Q72HI5); test: pNPP phosphatase assay, A405, dose-response fit with Hill slope; conditions: 40 mM pNPP, As(V) 0-100 µM, pH 7, 60 °C
TtArsC [2] = biological target: T1, TtArsC; test: pNPP phosphatase assay, A405, nonlinear fit to non-competitive model; type: biochemical; conditions: pNPP 0.25-200 mM, As(V) 0-20 µM, 4 µM enzyme, 20 mM Tris-HCl pH 7, 60 °C

Protein sequences, listed by entry. Tags and fused reporters are not part of them. Residues count along the entry.
UniProt Q72HI5, 1-150: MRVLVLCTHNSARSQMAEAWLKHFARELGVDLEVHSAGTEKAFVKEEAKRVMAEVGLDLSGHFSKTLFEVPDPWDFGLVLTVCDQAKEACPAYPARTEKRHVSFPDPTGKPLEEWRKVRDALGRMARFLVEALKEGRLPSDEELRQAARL

## O=[As](O)(O)O
TtArsC [1]
  IC50: 13.2 µM
TtArsC [2]
  Ki: 15.2 µM
